Values quoted from earlier work as cited in patent publication US20120202756A1, “USE OF PRODRUGS TO AVOID GI MEDIATED ADVERSE EVENTS” (priority 2009, published 2012).

Tested on: dog oesophagus
Details: perfusion of the dog oesophagus; cited from earlier work

For `NCCCC(O)(P(=O)(O)O)P(=O)(O)O` [alendronate], the oesophageal damage is given as “marked oesophageal damage”.
